Results reported in PMC5520048 (Nature Communications, 2017).

Amino acid sequences for entries named in this document (tags omitted). Residues count along the entry.
UniProt P02768, 25-609: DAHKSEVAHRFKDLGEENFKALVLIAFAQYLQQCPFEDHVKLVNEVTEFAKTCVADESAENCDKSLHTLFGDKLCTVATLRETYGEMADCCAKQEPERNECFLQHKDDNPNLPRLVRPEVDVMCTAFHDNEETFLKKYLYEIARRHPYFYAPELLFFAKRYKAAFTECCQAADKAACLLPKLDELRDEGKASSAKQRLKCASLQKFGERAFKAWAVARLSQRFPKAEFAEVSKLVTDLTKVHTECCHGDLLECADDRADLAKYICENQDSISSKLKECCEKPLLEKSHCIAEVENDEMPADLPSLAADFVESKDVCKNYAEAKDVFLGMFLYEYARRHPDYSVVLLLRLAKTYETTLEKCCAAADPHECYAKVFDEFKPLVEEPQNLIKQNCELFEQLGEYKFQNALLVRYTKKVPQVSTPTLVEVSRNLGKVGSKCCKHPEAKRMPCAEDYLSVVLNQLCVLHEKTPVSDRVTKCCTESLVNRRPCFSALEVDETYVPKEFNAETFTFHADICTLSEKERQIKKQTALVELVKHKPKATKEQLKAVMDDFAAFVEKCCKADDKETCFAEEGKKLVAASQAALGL

What was measured:
human albumin in serum = biological target: T1, human albumin in serum (Homo sapiens, UniProt P02768); assay: Fluorescence polarization albumin binding assay in diluted human serum; conditions: read-out: Albumin binding (Kd) Human serum, human albumin concentration of 0.6 mM in serum assumed
T1 construct: measuring fluorescence polarization of peptide incubated with human serum that; tissue Sigma-Aldrich H4522; host or cells: human serum
Description: Forty-five microlitre of the dilutions were added to 15 μl of fluorescent peptide (100 nM) in black 96-well half area microtitre plates. […] The final concentration of fluorescent peptide was 25 nM in all wells. Fluorescence anisotropy was measured with an Infinite M200Pro plate reader (Tecan) using an excitation filter at 485 nm and an emission filter at 535 nm. Dissociation constant (KD) were determined by nonlinear regression analysis of anisotropy versus the total concentration of proteins [P]T using the following equation: […]
A is the experimental fluorescence anisotropy. Af and Ab are the fluorescence anisotropy for the free and the fully bound fluorescent ligand, respectively. [L]T and [P]T represent the total fluorescent ligand and protein concentration, respectively. KD is the dissociation constant for the binding equilibrium. Values were calculated with Prism 5 (GraphPad software).

[1] = Pharmacokinetic study in rats; assay type: in vivo, Female Sprague Dawley rats; conditions: i.v.
[2] = once in the blood stream; cited from earlier work
tag (F)-EYEKpalmEYE = biological target: T2, tag (F)-EYEKpalmEYE (palmitoyl on Lys4 side chain, N-terminal fluorescein); assay: fluorescence polarization
T2 chain: EYEKEYE

[3] = 0.5 mg kg^−1 tagged bicyclic peptides, 0.3 mg kg^−1 UK18, 0.25 mg kg^−1 tag, n=3

In the case of (F)-EYEKpalmEYE [tag], the Kd (human albumin in serum) is reported as 37 ± 2 nM, the CL [1, 3] is reported as 4 ± 1 mL/h/kg and the VD [1, 3] is reported as 0.074 ± 0.013 L/kg. For the same molecule, the “t1/2 α” value [1, 3] was 1.5 ± 0.4 h, the “t1/2 β (elimination half-life)” value [1, 3] was 12.3 ± 0.4 h and the “degradation in rat blood samples by HPLC analysis (in words)” value ([1]; RP-HPLC with fluorescence detection) was “not degraded”.

In the case of insulin, the half-life [2] is listed as 4 to 6 min.

B1: rabbit serum albumin (protein)
chain: EAHKSEIAHRFNDVGEEHFIGLVLITFSQYLQKCPYEEHAKLVKEVTDLAKACVADESAANCDKSLHDIFGDKICALPSLRDTYGDVADCCEKKEPERNECFLHHKDDKPDLPPFARPEADVLCKAFHDDEKAFFGHYLYEVARRHPYFYAPELLYYAQKYKAILTECCEAADKGACLTPKLDALEGKSLISAAQERLRCASIQKFGDRAYKAWALVRLSQRFPKADFTDISKIVTDLTKVHKECCHGDLLECADDRADLAKYMCEHQETISSHLKECCDKPILEKAHCIYGLHNDETPAGLPAVAEEFVEDKDVCKNYEEAKDLFLGKFLYEYSRRHPDYSVVLLLRLGKAYEATLKKCCATDDPHACYAKVLDEFQPLVDEPKNLVKQNCELYEQLGDYNFQNALLVRYTKKVPQVSTPTLVEISRSLGKVGSKCCKHPEAERLPCVEDYLSVVLNRLCVLHEKTPVSEKVTKCCSESLVDRRPCFSALGPDETYVPKEFNAETFTFHADICTLPETERKIKKQTALVELVKHKPHATNDQLKTVVGEFTALLDKCCSAEDKEACFAVEGPKLVESSKATLG
Molecule B1 has a Kd (tag (F)-EYEKpalmEYE) of 320 nM.

B2: rat serum albumin (protein)
chain: EAHKSEIAHRFKDLGEQHFKGLVLIAFSQYLQKCPYEEHIKLVQEVTDFAKTCVADENAENCDKSIHTLFGDKLCAIPKLRDNYGELADCCAKQEPERNECFLQHKDDNPNLPPFQRPEAEAMCTSFQENPTSFLGHYLHEVARRHPYFYAPELLYYAEKYNEVLTQCCTESDKAACLTPKLDAVKEKALVAAVRQRMKCSSMQRFGERAFKAWAVARMSQRFPNAEFAEITKLATDVTKINKECCHGDLLECADDRAELAKYMCENQATISSKLQACCDKPVLQKSQCLAEIEHDNIPADLPSIAADFVEDKEVCKNYAEAKDVFLGTFLYEYSRRHPDYSVSLLLRLAKKYEATLEKCCAEGDPPACYGTVLAEFQPLVEEPKNLVKTNCELYEKLGEYGFQNAVLVRYTQKAPQVSTPTLVEAARNLGRVGTKCCTLPEAQRLPCVEDYLSAILNRLCVLHEKTPVSEKVTKCCSGSLVERRPCFSALTVDETYVPKEFKAETFTFHSDICTLPDKEKQIKKQTALAELVKHKPKATEDQLKTVMGDFAQFVDKCCKAADKDNCFATEGPNLVARSKEALA
For B2, the Kd (tag (F)-EYEKpalmEYE) was 220 nM.
